Measured values as given in US20250353891A1 (MEDIMMUNE LIMITED, priority 2022, published 2025).

Sequences of proteins named here, by UniProt entry; tags and fusion partners are left off. Residues count along the entry.
UniProt P43220, 24-463: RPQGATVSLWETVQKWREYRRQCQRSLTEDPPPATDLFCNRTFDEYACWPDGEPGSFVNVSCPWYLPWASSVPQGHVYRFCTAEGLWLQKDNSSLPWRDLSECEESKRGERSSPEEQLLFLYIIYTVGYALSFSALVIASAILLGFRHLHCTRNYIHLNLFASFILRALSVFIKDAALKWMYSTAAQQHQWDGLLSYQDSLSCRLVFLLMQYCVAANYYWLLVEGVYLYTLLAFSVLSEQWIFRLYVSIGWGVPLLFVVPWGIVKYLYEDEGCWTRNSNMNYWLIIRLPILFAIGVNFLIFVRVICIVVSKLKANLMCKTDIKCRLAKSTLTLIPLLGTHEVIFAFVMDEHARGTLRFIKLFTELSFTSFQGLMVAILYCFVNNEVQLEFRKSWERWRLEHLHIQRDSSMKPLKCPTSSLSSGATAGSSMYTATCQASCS
UniProt P47871, 26-477: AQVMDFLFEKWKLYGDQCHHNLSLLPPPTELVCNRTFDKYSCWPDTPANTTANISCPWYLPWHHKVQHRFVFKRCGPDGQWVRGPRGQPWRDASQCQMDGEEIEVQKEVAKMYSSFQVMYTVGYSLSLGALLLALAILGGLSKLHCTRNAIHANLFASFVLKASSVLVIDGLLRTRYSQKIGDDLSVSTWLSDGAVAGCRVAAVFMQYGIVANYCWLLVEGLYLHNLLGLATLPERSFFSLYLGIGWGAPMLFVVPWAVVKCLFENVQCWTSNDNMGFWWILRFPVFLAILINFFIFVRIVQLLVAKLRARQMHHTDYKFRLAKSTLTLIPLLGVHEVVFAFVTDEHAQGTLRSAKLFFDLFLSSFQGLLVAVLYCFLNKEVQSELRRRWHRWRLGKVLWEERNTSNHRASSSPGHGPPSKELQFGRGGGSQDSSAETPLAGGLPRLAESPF

Experiments:
[1] = molecular target: human GLP-1 receptor (hGLP-1R) (Homo sapiens, UniProt P43220); experiment: cAMP production (HTRF) in CHO cells expressing hGLP-1R; assay type: cell-based; set-up: expressed in transfected cells; conditions: for % Relative Potency Ratio: % GLP-1R activity relative to GLP-1 / % GlucR activity relative to glucagon
Experimental: (§1) Cells were re-suspended in assay buffer at a batch-dependent optimized concentration (typically hGLP-1R cells at 1×10^5 cells/mL, hGCGR cells at 2×10^5 cells/mL).
(§2) Cells were added to the assay plate using a multidrop dispenser and incubated at room temperature for 30 minutes before measuring the cAMP level using a cAMP dynamic 2 homogeneous time resolved Fluorescence (HTRF) kit (Cisbio Bioassays #62AM4PEJ) following the two-step protocol as per manufacturer's recommendations. In brief, anti-cAMP cryptate (donor fluorophore) and cAMP-d2 (acceptor fluorophore) were made up separately by diluting each 1 in 20 in conjugate and lysis buffer provided in the kit. Anti-CAMP cryptate was added to all wells of the assay plate, followed by cAMP-d2 added to all wells except non-specific binding (NSB) wells (to which conjugate and lysis buffer was added).
(§3) Data was transformed to % Delta F as described in the manufacturer's guidelines and analyzed by 4-parameter logistic fit to determine EC50 values.

[2] = molecular target: human glucagon receptor (hGCGR) (Homo sapiens, UniProt P47871); experiment: cAMP production (HTRF) in CHO cells expressing hGCGR; assay type: cell-based; set-up: expressed in transfected cells; conditions: hGluc-R EC50 (pM), 0.1% BSA, geometric mean
Experimental: as §1, §2, §3

| Compound | % Relative Potency Ratio [1] | EC50 ([1]; hGLP-1R EC50 (pM)) [pM] | EC50 [2] [pM] |
| --- | --- | --- | --- |
| CC[C@H](C)[C@H](NC(=O)[C@H](Cc1c[nH]c2ccccc12)NC(=O)[C@H](CCCCNC(=O)COCCOCCNC(=O)COCCOCCNC(=O)CC[C@H](NC(=O)CCCCCCCCCCCCCCCCC(=O)O)C(=O)O)NC(=O)[C@@H](NC(=O)[C@H](Cc1ccccc1)NC(=O)[C@H](CC(=O)O)NC(=O)[C@H](CCC(N)=O)NC(=O)[C@H](C)NC(=O)[C@H](C)NC(=O)[C@H](CCC(N)=O)NC(=O)[C@H](CO)NC(=O)[C@H](CC(=O)O)NC(=O)[C@H](CC(C)C)NC(=O)[C@](C)(Cc1ccccc1)NC(=O)[C@H](CCCCN)NC(=O)[C@H](CO)NC(=O)[C@@H](NC(=O)[C@H](CC(=O)O)NC(=O)[C@H](CO)NC(=O)[C@@H](NC(=O)[C@H](Cc1ccccc1)NC(=O)[C@@H](NC(=O)CNC(=O)[C@H](Cc1c[nH]cn1)NC(=O)C(C)(C)NC(=O)[C@@H](N)Cc1c[nH]cn1)[C@@H](C)O)[C@@H](C)O)C(C)C)C(C)C)C(=O)N[C@@H](C)C(=O)N[C@@H](CC(N)=O)C(=O)N[C@H](C(N)=O)[C@@H](C)O [Peptide 345] | 0.1 | 2860 | 168 |
| CCCCCCCCCCCCCCCCCC(=O)N[C@@H](CCC(=O)N[C@@H](CCC(=O)NCCOCCOCCC(=O)NCCOCCOCCC(=O)NCCCC[C@H](NC(=O)[C@H](CC(=O)O)NC(=O)[C@H](CO)NC(=O)[C@@H](NC(=O)[C@](C)(Cc1ccccc1)NC(=O)[C@H](CO)NC(=O)CNC(=O)[C@H](CCC(N)=O)NC(=O)[C@H](CO)NC(=O)[C@@H](N)Cc1c[nH]cn1)[C@@H](C)O)C(=O)N[C@@H](CO)C(=O)N[C@@H](CCCCN)C(=O)N[C@H](C(=O)N[C@@H](CC(C)C)C(=O)N[C@@H](CC(=O)O)C(=O)N[C@@H](CO)C(=O)N[C@H](C(=O)N[C@@H](C)C(=O)N[C@@H](C)C(=O)N[C@@H](CCC(N)=O)C(=O)N[C@@H](CC(=O)O)C(=O)N[C@@](C)(Cc1ccccc1)C(=O)N[C@H](C(=O)N[C@@H](CCC(=O)O)C(=O)N[C@@H](Cc1c[nH]cn1)C(=O)N[C@@H](CC(C)C)C(=O)N[C@@H](C)C(=O)N[C@@H](CC(N)=O)C(=O)N[C@H](C(N)=O)[C@@H](C)O)C(C)C)C(C)(C)CCNC(=N)N)C(c1ccccc1)c1ccccc1)C(=O)O)C(=O)O [Peptide 397] | 3.7 | – | – |
| CCCCCCCCCCCCCCCCCC(=O)N[C@@H](CCC(=O)N[C@@H](CCC(=O)NCCOCCOCCC(=O)NCCOCCOCCC(=O)NCCCC[C@H](NC(=O)[C@H](CC(=O)O)NC(=O)[C@H](CO)NC(=O)[C@@H](NC(=O)[C@](C)(Cc1ccccc1)NC(=O)[C@H](CO)NC(=O)CNC(=O)[C@H](CCC(N)=O)NC(=O)[C@H](CO)NC(=O)[C@@H](N)Cc1c[nH]cn1)[C@@H](C)O)C(=O)N[C@@H](CO)C(=O)N[C@@H](CCCCN)C(=O)N[C@H](C(=O)N[C@@H](CC(C)C)C(=O)N[C@@H](CC(=O)O)C(=O)N[C@@H](CO)C(=O)N[C@H](C(=O)N[C@@H](C)C(=O)N[C@@H](C)C(=O)N[C@@H](CCC(N)=O)C(=O)N[C@@H](CC(=O)O)C(=O)N[C@@](C)(Cc1ccccc1)C(=O)N[C@H](C(=O)N[C@@H](CCC(=O)O)C(=O)N[C@@H](Cc1c[nH]cn1)C(=O)N[C@@H](CC(C)C)C(=O)N[C@@H](C)C(=O)N[C@@H](CC(N)=O)C(=O)N[C@H](C(N)=O)[C@@H](C)O)C(C)C)C(C)(C)CCNC(=N)N)C(c1ccccc1)c1ccccc1)C(=O)O)C(=O)O [Peptide 398, HSQGS(αMePhe)TSDK((PEG)2-(PEG)2-γE-γE-Stearoyl) 10SK(Dip)LDS(β-dimethylArg)AAQD(αMePhe)VEHLANT-amide] | 1.5 | – | – |
